## Ab-14 heavy chain CDR variants: yeast mating affinities

Target: peptide PDVDLGDISGINAS, taken from heptad repeat 2 (HR2) of SARS-CoV-2 spike.

The variants keep the light chain, the linker and the frameworks of Ab-14 (scFv order VH, the linker GGGGSGGGGSGGGGS, VL).
VH: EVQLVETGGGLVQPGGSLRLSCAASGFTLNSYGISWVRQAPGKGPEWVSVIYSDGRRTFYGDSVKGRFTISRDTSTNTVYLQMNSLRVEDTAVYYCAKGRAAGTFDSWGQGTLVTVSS
VL: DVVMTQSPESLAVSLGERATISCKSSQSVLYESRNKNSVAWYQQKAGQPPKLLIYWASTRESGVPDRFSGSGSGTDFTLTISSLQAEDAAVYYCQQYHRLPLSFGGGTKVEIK

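The starting antibody came from a phage panning campaign against this peptide. Designed CDR sequences, proposed from the first random library and measured here. Several design methods are mixed in this list. The scFvs were displayed on barcoded MATa yeast, the peptide on MATalpha yeast. The frequency of each diploid, read from paired DNA barcodes, reflects how well the two displayed proteins bind. The ratio of observed to expected reads was calibrated, replicate by replicate, on BCL2-family standards whose Kd was known from biolayer interferometry. Each pool was mated in six replicate cultures.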

Each variant is given by its three heavy chain CDRs, as the data file delimits them; those of the parent are GFTLNSYGIS, VIYSDGRRTFYGDSVK, GRAAGTFDS. Scale: log10 of Kd in nM, estimated from mating counts; low values are strong binders. Replicates are averaged; those with no signal do not enter the mean. An entry "no signal" has no value in the source: the pair was not observed among the diploids in any replicate. This suggests poor binding but is not conclusive. The range of this assay differs from that of the first round, and the authors advise against merging the two. Where one sequence has several entries in the source, the replicates are pooled. The authors' rule: three or more of the six replicates give a measured affinity, fewer mean a poor binder. The parent sequence was in this pool as ten entries: three were never detected, three once, and four in most replicates, with averages from 0.34 to 2.37. As a blank, each scFv also met three strains without target: over all heavy chain designs, 1% of these pairings were detected, typically at 2.08 and seldom below 0.84. For each scFv, signals with the empty controls are counted beside the result.

CDR-H1	CDR-H2	CDR-H3	mean, log10 nM	detected	control signals
GFDLDEYGIS	VIYADGRRTAYTDSVK	GNVAGTFDI	-0.41	6 of 6	0 of 18
GFQLNSYGIS	VIYSDGRRTFYDDSVK	GQLAGTFDS	0.75	6 of 6	0 of 18
GEQLDEYGIS	VIYADGRKQYYANSVK	GDSADVFDL	no signal	0 of 6	0 of 18
GFGLDEYGIS	VIFADGERKYYTDNVK	GHFGEDGVV	2.08	1 of 6	0 of 18
GFTLNEYGIS	VIYSDGRRTFYVDSFK	GRAAGEFTS	no signal	0 of 6	1 of 18
GFDLNEYGIS	VIYADGVRTAYIDSVK	GNVAGTFDL	-0.26	6 of 6	0 of 18
GFDLNEYGIS	VIYADGMRTAYADSVK	GANAGTFDT	-0.23	6 of 6	0 of 18
GFSLNSYGIS	VIYSDGRRTSYLDSVK	GRCAGTFDQ	no signal	0 of 6	0 of 18
GFDLDEYGIS	VIYADGQRTAYADNVK	GNVAGTFDL	-0.45	6 of 6	1 of 18
GFSLNSYGIS	VIYSDGRRTFYGDDVK	GNVAGTFDK	-0.78	6 of 6	0 of 18
GFTLLDYGIS	VIYSDGRRTFYVDSVK	GRAAGTFDS	2.76	4 of 6	0 of 18
GFSLNSYGIS	VIYSDGRRTFYTDKVK	GEAAGTFDS	0.94	6 of 6	0 of 18
GFVLDEFGIS	VIYADGRRTAYTQDVK	GEKAGDFSF	1.76	5 of 6	0 of 18
GFALDEYGIS	VIYADGNRVFYADTVK	GLLGILYVV	no signal	0 of 6	0 of 18
GFDLDEYGIS	VIYADGMRTAYSDDVK	GEVAGTFDL	0.04	6 of 6	0 of 18
GFDLNEYGIS	VIYADGHRSFYIDTVK	GQQAGIFNV	1.86	5 of 6	1 of 18
GFSLNSYGIS	VIYSDGRRTAYQDDVK	GRAAGTFDS	0.30	6 of 6	0 of 18
GFELNKYGIS	VIYSDGRRTFYGDSVK	GRTAGTFDS	0.51	6 of 6	0 of 18
GFDIEEFGIS	VIYADGKRMAYSNNVK	GLMAGTMGD	0.36	2 of 6	0 of 18
GFTLNSYGIS	VIYSDGRRTFYEDSVK	GQLAGTFDT	1.31	4 of 6	0 of 18
GFTLNSYGIQ	VIYSDGKRTAYGDSVK	GRAAGTFDS	no signal	0 of 6	0 of 18
GFSLNQYGIS	VIYSDGRRTFYGDSVK	GEAAGTFDS	-0.26	6 of 6	0 of 18
GFDLNSYGIS	VIYSDGRRTAYGDSVK	GKAAGTFDT	0.13	6 of 6	0 of 18
GFDLNSYGIS	VIYSDGRRTFYADSVK	GRAAGSFDS	1.30	6 of 6	1 of 18
GFDLNEYGIS	VIYADGRRTFYVDSVK	GENAGIFNV	0.96	2 of 6	0 of 18
GFTLESYGIH	VIYSDGRRTFYQDSVK	GRAAGTFDS	1.07	2 of 6	0 of 18
GFSLNEYGIS	VIYSDGRRTFYIDSVK	GREAGTFDS	-0.40	6 of 6	0 of 18
GRTLNSYGIS	VIYSDGRRTFYADEVK	GRAAGTFDS	no signal	0 of 6	0 of 18
GFTLNDYGIS	VIYSDGRRTFYGDSVK	GKVAGTFIS	0.12	4 of 6	0 of 18
GFSLNSYGIS	VIYSDGRRTFYDDSVK	GHLAGTFDS	0.36	6 of 6	0 of 18
GFDLNEYGIS	VIYADGRRTFYSDSVK	GEAAGTFDL	-0.32	6 of 6	0 of 18
GFDLNEYGIS	VIYADGMRSAYADSVK	GNVAGTFDV	-0.47	6 of 6	0 of 18
KFTLNDYGIS	VIYSDGRRTFYIDSVK	GRCAGTFDS	no signal	0 of 6	0 of 18
GFTLNEYGIS	VIYSDGRRTFYGDSVK	GEAAGTKDS	no signal	0 of 6	0 of 18
GFTLNSYGIS	VIYSDGRRTFYGLSVK	GREAGTFDS	no signal	0 of 6	0 of 18
GEDLEEYGIS	VIYADGRRSAYADNVK	GMSGNFGMF	no signal	0 of 6	0 of 18
GFHLNSYGIS	VIYSDGRRTFYQDSVK	GKTAGTFDS	1.36	5 of 6	0 of 18
GFDLNEYGIS	VIYADGRRTAYIDSVK	GTNAGTFDI	0.12	6 of 6	0 of 18

Second part, the sequence after the result:

mean, log10 nM	detected	control signals	CDR-H1	CDR-H2	CDR-H3
no signal	0 of 6	0 of 18	GEDLGEYGIS	VIYADGVRASYIDSVK	GESTGFLDV
1.99	3 of 6	0 of 18	GFTLNSYGIS	VIYSDGKRTFYIDSVK	GQAAGTFDT
no signal	0 of 6	1 of 18	GFTLNQYGIS	VIYSDGRRTFYSDSAK	GRAAGFGDS
no signal	0 of 6	0 of 18	GFTLNSYGIS	VIYADGRRTFYKDSVK	GRAAGTNKS
0.33	6 of 6	0 of 18	GFTLNSYGIS	VIYSDGMRTFYSDSVK	GFTAGTFDS
-0.11	6 of 6	0 of 18	GFDLNSYGIS	VIYSDGRRTAYGDMVK	GRTAGTFDS
-0.10	6 of 6	0 of 18	GFDLNSYGIS	VIYSDGRRTFYSDSVK	GRTAGTFDQ
no signal	0 of 6	0 of 18	GFDLNSYGIS	VIYSDGRRTMYLDSVK	GQAAGTFDS
-0.39	6 of 6	0 of 18	GFDLNEYGIS	VIYADGRRTAYSDSVK	GEAGGTFDE
no signal	0 of 6	0 of 18	GKDLLEYGIS	VIYADGIRVMYQNQVK	GNVAGFFTF
no signal	0 of 6	0 of 18	GFTLDSYGIS	VIYSDGRRTFYGDSVK	GRSAGTFDR
-0.37	6 of 6	0 of 18	GFNLDEYGIS	VIYADGRRTFYQDSVK	GETAGTFDF
1.17	6 of 6	0 of 18	GFTLNSYGIS	VIYSDGLRTFYDDSVK	GQLAGTFDS
1.17	12 of 12	1 of 36	GFSLNSYGIS	VIYSDGRRTFYIDSVK	GRAAGTFDS
2.00	1 of 6	0 of 18	GFTLNSYGIS	VIYSDGRRTFYLDSVK	GGAAGTFDY
1.11	6 of 6	1 of 18	GFELNSYGIS	VIYSDGRRTFYIDSVK	GQAAGTFDA
0.36	6 of 6	0 of 18	GFTLDSYGIS	VIYSDGRRTFYQDSVK	GSAAGTFDS
0.52	6 of 6	0 of 18	GFELNSYGIS	VIYSDGRRTFYQDSVK	GKTAGTFDS
1.10	6 of 6	0 of 18	GFSLNSYGIS	VIYSDGRRTFYADKVK	GQAAGTFDS
1.43	6 of 6	0 of 18	GFGLNDYGIS	VIYSDGRRTFYGDSVK	GTAAGTFDS
-0.64	6 of 6	0 of 18	GFDLNEYGIS	VIYADGSRTAYADDVK	GNVAGTFDL
-0.22	4 of 6	0 of 18	GFSLNEYGIS	VIYSDGKRTFYGDSVK	GQTAGTFDS
no signal	0 of 6	0 of 18	GFTLNSYGAS	VIYSDGRRTFYSDSVK	GRAGGTFDS
1.02	6 of 6	1 of 18	GFTLDSYGIS	VIYSDGRRTFYADPVK	GRAAGTFDK
no signal	0 of 6	0 of 18	GFTLNEYGIS	VIYSDGRRTAYRDSVK	IRAAGTFDS
-0.37	6 of 6	1 of 18	GFDLNEYGIS	VIYADGMRTAYADSVK	GETAGTFDQ
1.33	6 of 6	0 of 18	GFTLNSYGIS	VMYSDGQRTAYGDSVK	GRAAGTFDS
0.18	6 of 6	0 of 18	GFTLNDYGIS	VIYSDGRRTFYGDAVK	GRTAGTFDA
0.32	6 of 6	1 of 18	GFSLNSYGIS	VIYSDGRRTFYADSVK	GNAAGTFDA
-0.25	6 of 6	0 of 18	GFDLDEYGIS	VIYADGVRTFYADSVK	GENAGTFDI
-0.14	6 of 6	0 of 18	GFDLNEYGIS	VIYADGVRTYYADSVK	GETAGTFDV
1.96	5 of 6	0 of 18	GFNLNSYGIS	VIYSDGRRTQYGDSVK	GRAAGTFDS
no signal	0 of 6	0 of 18	GFTLNSYGIS	VIYSDGRRTFYNDSVK	GEAAGTFNS
0.78	5 of 6	0 of 18	GFTLNSYGIS	VIYSDGRRTFYGDDVK	GEAAGTFDK
2.22	6 of 6	0 of 18	GFDLNEYGIS	VIYADGMRTAYTDSVK	GSNAGTFDI
-0.12	6 of 6	0 of 18	GFDLNEYGIS	VIYADGMRKVYADSVK	GNQAGTFDV
no signal	0 of 6	0 of 18	GDDLNSYGIS	VIYSDGRRTFYGDSVK	GRAAGWFNS
0.27	6 of 6	1 of 18	GFSLNSYGIS	VIYSDGRRTFYDDSVK	GMEAGTFDS

Data: MIT Lincoln Laboratory AlphaSeq set, Li et al. 2023, doi:10.1038/s41467-023-39022-2, as distributed in FLAb.